We go through 2 compounds from ChEMBL document CHEMBL4011631, “Trisubstituted Pyridinylimidazoles as Potent Inhibitors of the Clinically Resistant L858R/T790M/C797S EGFR Mutant: Targeting of Both Hydrophobic Regions and the Phosphate Binding Site” (J Med Chem, 2017).

For assay [1], the system named is Epidermal growth factor receptor (Homo sapiens), P00533 [L858R].
Assay [2] relates to Epidermal growth factor receptor (Homo sapiens), P00533 [L858R,T790M].

SMILES strings stand for the structures.

Take `C=CC(=O)NCCSc1nc(-c2ccc(F)cc2)c(-c2ccnc(Nc3ccccc3)c2)[nH]1`: the Kinact in assay [1] stood at 0.04 min⁻¹; in assay [2], 0.09 min⁻¹.

On to `C=CC(=O)Nc1ccc(OC)c(Nc2cc(-c3[nH]c(CCCO)nc3-c3ccc(F)cc3)ccn2)c1`, for which the Kinact in assay [1] amounted to 0.1 min⁻¹; in assay [2], 0.13 min⁻¹.
